Results as given in article PMC10294837 (2023).
Where two headings read alike, the source gives them in different places.

Chains of the proteins cited; added tags and fusions are not shown.
UniProt Q6PLK3, whole entry: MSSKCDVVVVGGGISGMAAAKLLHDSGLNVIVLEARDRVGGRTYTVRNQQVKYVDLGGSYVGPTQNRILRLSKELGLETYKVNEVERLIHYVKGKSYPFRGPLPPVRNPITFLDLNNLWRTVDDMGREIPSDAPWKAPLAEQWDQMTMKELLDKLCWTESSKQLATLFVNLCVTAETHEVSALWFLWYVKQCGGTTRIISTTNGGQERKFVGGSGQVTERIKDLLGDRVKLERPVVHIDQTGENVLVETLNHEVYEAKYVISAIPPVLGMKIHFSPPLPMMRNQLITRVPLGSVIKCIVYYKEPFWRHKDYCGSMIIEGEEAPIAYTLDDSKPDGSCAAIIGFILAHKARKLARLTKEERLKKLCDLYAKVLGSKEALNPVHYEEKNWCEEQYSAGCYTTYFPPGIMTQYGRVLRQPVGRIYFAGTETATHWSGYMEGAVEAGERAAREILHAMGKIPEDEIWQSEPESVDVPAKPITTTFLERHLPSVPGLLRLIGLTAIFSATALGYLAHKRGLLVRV
UniProt Q6Q2J0, whole entry: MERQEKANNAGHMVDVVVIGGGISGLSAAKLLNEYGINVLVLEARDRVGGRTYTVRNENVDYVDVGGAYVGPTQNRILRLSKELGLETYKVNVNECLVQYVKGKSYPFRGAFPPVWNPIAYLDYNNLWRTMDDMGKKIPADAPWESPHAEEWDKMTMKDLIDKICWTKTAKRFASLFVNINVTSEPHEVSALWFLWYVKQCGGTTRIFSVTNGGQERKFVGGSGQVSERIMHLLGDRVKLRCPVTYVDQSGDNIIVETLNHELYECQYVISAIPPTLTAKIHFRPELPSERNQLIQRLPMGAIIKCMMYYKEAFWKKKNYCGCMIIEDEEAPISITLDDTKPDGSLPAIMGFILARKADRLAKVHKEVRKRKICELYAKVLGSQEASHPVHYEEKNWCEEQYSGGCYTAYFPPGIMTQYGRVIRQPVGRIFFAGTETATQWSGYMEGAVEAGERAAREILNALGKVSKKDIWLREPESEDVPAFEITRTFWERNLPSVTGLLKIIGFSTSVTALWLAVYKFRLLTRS

How the values were obtained:
[1] = system: complex IV (cytochrome c oxidase); conditions: 100 μmol/L drug, mean ± SD, 30 min at 30 °C
[2] = system: complex I-linked ATP kinetics; conditions: control = 100%, mean ± SD
[3] = system: complex I (NADH dehydrogenase); conditions: 100 μmol/L drug, mean ± SD, 30 min at 30 °C
[4] = system: complex II+III (succinate cytochrome c oxidoreductase); conditions: 100 μmol/L drug, mean ± SD, 30 min at 30 °C
[5] = system: complex II-linked ATP content; conditions: 100 μmol/L, mean ± SD
[6] = system: complex II-linked ATP kinetics; conditions: mean ± SD
[7] = target: MAO-B (Sus scrofa, UniProt Q6PLK3); experiment: MAO-B activity, radiolabeled [14C]PEA substrate, pig brain mitochondria; format: biochemical; conditions: mean ± SEM, four measurements
[8] = target: T1, citrate synthase (CS) (Sus scrofa, UniProt P00889); conditions: mean ± SD, N = 3
T1 sequence (P00889 28-464): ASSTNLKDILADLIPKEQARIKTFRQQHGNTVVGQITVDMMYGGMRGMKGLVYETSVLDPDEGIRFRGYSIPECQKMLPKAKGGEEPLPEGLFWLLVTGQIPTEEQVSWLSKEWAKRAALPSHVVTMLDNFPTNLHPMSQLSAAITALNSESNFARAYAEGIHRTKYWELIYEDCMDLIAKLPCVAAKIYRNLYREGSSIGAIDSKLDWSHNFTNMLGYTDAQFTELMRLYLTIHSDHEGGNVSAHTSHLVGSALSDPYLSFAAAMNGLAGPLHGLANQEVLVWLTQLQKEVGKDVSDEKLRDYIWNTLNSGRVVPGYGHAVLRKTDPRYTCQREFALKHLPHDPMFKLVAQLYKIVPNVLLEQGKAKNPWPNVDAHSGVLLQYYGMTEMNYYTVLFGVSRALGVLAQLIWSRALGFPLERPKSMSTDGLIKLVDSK

[9] = target: T2, malate dehydrogenase (MDH) (Sus scrofa, UniProt P00346); conditions: mean ± SD, N = 3
T2 sequence (P00346 25-338): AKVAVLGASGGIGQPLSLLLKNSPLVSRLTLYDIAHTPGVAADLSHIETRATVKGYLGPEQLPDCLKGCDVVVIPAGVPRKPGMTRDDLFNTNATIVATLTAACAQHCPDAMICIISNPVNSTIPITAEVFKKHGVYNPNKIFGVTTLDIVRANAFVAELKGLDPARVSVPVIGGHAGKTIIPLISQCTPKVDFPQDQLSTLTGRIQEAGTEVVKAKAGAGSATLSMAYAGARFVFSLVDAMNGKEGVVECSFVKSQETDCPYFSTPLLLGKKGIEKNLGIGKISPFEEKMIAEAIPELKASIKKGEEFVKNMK

[10] = target: MAO-A (Sus scrofa, UniProt Q6Q2J0); experiment: MAO-A activity, radiolabeled [3H]serotonin substrate, pig brain mitochondria; format: biochemical; conditions: mean ± SEM, four measurements

SMILES	complex IV activity (relative to control) [1] [%]	complex I-linked ATP kinetics (relative to control) ([2]; 10 μmol/L) [%]	complex I activity (relative to control) [3] [%]	complex II+III activity (relative to control) ([4]; listed as PAR) [%]	complex II-linked ATP content (relative to control) [5] [%]	complex II-linked ATP kinetics (relative to control) ([6]; 100 μmol/L) [%]	complex I-linked ATP kinetics (relative to control) ([2]; 50 μmol/L) [%]	Hill Slope, MAO-B [7]	Residual Activity, MAO-B [7] [rel.u.]	CS (% of control) ([8]; 10 μM)	CS (% of control) ([8]; 100 μM)	MDH (% of control) ([9]; 10 μM)	MDH (% of control) ([9]; 100 μM)	Hill Slope, MAO-A [10]	Residual Activity, MAO-A [10] [rel.u.]	complex II+III activity (relative to control) [4] [%]	complex II-linked ATP kinetics (relative to control) ([6]; 50 μmol/L, control = 100%) [%]
Fc1ccc([C@@H]2CCNC[C@H]2COc2ccc3c(c2)OCO3)cc1	61.1 ± 3.1	80.4 ± 5.1	33.0 ± 4.4	64.4 ± 4.5	88.6 ± 4.0	82.1 ± 0.1											
CN(C)CCC[C@@]1(c2ccc(F)cc2)OCc2cc(C#N)ccc21 [escitalopram]	34.9 ± 1.7		43.9 ± 4.7				81.6 ± 5.1	1.13 ± 0.14	0.038 ± 0.032	102.4 ± 3.60 % of control	97.2 ± 1.52 % of control	98.0 ± 6.10 % of control	99.6 ± 2.64 % of control	0.99 ± 0.29	0.005 ± 0.057	94.4 ± 2.7	81.5 ± 4.5
